Active and inactive are the calls of the source. The calls are words filed in the database; no cut-off is given here.
Target: Neurolysin, mitochondrial (Homo sapiens, UniProt Q9BYT8)
Test: Activation of Nln (unknown origin) using Mca-Pro-Leu-Gly-Pro-D-Lys(DNP)- OH as substrate preincubated for 10 mins followed by substrate addition measured for 20 mins by fluorescence based assay relative to control
Settings: time 30.0 min

Sequences of proteins named here, by UniProt entry; tags and fusion partners are left off.
UniProt Q9BYT8, whole entry, looked up: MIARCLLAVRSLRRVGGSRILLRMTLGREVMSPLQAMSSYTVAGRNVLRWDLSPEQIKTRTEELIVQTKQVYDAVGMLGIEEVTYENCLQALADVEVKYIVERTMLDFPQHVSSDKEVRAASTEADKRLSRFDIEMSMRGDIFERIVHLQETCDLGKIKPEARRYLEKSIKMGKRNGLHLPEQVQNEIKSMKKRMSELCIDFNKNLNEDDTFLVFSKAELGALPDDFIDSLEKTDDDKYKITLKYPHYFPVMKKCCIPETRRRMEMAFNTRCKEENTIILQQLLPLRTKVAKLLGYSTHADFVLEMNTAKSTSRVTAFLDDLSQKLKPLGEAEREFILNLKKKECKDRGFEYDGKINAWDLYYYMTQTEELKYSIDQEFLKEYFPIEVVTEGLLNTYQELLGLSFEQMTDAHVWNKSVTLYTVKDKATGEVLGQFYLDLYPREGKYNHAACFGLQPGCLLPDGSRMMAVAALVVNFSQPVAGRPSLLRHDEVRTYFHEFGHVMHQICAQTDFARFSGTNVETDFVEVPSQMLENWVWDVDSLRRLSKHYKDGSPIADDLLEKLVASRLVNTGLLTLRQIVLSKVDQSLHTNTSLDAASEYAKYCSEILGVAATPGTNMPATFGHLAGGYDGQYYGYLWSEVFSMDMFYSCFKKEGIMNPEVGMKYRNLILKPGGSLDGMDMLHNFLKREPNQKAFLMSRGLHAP

Emax	SMILES	Emax (filed as activator)
	N[C@@H](Cc1c[nH]cn1)C(=O)NCCc1ccc(F)cc1	254%
inactive	N[C@@H](Cc1c[nH]cn1)C(=O)N[C@@H](Cc1ccccc1)C(=O)NCc1cccc2ccccc12	
inactive	N[C@@H](Cc1c[nH]cn1)C(=O)NCC(=O)c1ccc2ccccc2c1	
inactive	CC(C)[C@H](NC(=O)[C@@H](N)Cc1c[nH]cn1)C(=O)NCc1cccc2ccccc12	
